Consider one compound from ChEMBL document CHEMBL5252536, “Discovery of VU0467485/AZ13713945: An M4 PAM Evaluated as a Preclinical Candidate for the Treatment of Schizophrenia” (ACS Med Chem Lett, 2017).

By UniProt entry, the sequences of proteins in these tests, tags left out.
UniProt P08173, whole entry, looked up: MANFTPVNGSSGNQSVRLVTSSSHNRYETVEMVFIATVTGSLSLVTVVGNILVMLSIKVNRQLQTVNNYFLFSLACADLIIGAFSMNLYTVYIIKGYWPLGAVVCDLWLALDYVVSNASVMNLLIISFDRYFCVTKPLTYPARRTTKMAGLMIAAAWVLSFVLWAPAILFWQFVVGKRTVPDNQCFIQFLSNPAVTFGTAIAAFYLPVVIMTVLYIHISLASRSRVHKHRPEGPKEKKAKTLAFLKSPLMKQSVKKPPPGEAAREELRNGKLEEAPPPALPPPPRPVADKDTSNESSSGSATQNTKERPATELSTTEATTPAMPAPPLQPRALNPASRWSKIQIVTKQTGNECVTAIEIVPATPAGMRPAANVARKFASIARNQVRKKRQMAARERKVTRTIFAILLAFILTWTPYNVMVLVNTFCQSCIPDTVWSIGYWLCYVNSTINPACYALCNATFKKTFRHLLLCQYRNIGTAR

Test [1] addresses T1, Muscarinic acetylcholine receptor M4 (Rattus norvegicus) (UniProt P08485).
T1 sequence (whole entry): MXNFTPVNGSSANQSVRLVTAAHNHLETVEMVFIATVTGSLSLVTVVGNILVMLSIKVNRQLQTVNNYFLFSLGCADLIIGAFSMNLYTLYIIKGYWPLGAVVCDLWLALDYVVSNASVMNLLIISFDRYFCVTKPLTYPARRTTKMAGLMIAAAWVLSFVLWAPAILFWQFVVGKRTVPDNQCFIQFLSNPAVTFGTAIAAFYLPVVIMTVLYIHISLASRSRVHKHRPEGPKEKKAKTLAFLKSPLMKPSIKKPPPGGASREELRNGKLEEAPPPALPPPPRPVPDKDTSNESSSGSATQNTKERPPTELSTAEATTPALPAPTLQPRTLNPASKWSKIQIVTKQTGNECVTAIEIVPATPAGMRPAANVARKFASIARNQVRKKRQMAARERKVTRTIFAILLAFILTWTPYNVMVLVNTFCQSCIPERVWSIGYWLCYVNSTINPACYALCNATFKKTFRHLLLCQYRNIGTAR
In words: Positive allosteric modulator activity at rat M4 receptor expressed in CHO cells co-expressing Gqi5 assessed as leftward shift in concentration response at 10 uM measured after 140 sec by fold shift assay. The conditions noted are these: filed as positive allosteric modulator.

The target of test [2] is Muscarinic acetylcholine receptor M4 (Homo sapiens, UniProt P08173). The test is described as follows: Positive allosteric modulator activity at human M4 receptor expressed in CHO cells co-expressing Gqi5 assessed as leftward shift in concentration response at 10 uM measured after 140 sec by fold shift assay. The conditions noted are these: filed as positive allosteric modulator.

Regarding `COc1ccc(CNC(=O)c2sc3nnc(C)c(C)c3c2N)cc1F`, the fold change (FC) in test [1] came out at 40; in test [2], 45.
